By IC50 is commonly meant the midpoint of a concentration-inhibition curve.

In patent US9453051B2, “Cyclosporin derivatives” (priority 2011, dated 2016) one finds IC50 data, which are given here for 1 compound.

For the assay, the system named is NFAT. The assay is described as follows: Cellular NFAT-reporter-gene assay (GloResponse NFAT-RE-luc2P HEK293). It is filed as cell-based. The following applies: read-out: NFAT-reporter-gene assay IC50; HEK293 reporter cells stimulated with 5 nM PMA and 2 μM ionomycin, 16 h.

`CC[C@@H]1NC(=O)[C@H]([C@H](O)[C@H](C)Cc2nc3cc(C(=O)OC)ccc3[nH]2)N(C)C(=O)[C@H](C(C)C)N(C)C(=O)[C@H](CC(C)C)N(C)C(=O)[C@H](CC(C)C)N(C)C(=O)[C@@H](C)NC(=O)[C@H](C)NC(=O)[C@H](CC(C)C)N(C)C(=O)[C@H](C(C)C)NC(=O)[C@H](CC(C)C)N(C)C(=O)CN(C)C1=O`: the IC50 was > 10 µM.
